Test results from BindingDB's records for 8071934.

Protein sequences, listed by entry. Tags and fused reporters are not part of them.
UniProt P41143, whole entry, looked up: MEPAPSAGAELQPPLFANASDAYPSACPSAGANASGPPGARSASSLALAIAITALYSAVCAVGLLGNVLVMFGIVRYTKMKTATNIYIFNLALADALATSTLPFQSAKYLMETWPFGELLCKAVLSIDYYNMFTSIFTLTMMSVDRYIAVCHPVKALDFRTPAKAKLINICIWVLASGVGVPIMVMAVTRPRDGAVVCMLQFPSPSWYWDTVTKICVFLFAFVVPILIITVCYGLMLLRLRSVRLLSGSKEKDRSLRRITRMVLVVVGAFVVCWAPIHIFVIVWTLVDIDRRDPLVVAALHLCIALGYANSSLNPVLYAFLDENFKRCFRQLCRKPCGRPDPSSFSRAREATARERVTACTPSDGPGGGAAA

Molecular target: Delta-type opioid receptor (Homo sapiens, UniProt P41143)
Assay: Tested for inhibitory concentration against [3H]DPDPE binding at sites of delta-opioid receptor in guinea pig brain membrane

Compound	IC50 [nM]
CN(C(=O)Cc1ccc(Cl)c(Cl)c1)[C@H](CN1CCCC1)c1ccc(N=C=S)cc1	> 1000
CN(C(=O)Cc1cc(Cl)c(Cl)cc1N=C=S)[C@H](CN1CCCC1)c1ccccc1	1700
CN(C(=O)Cc1cccc(N=C=S)c1)[C@H](CN1CCCC1)c1ccccc1	144
CN(C(=O)Cc1ccccc1)[C@H]1C[C@@]2(CCCO2)CC[C@@H]1N1CCCC1	5000
CN(C(=O)Cc1ccc(N=C=S)cc1)[C@H](CN1CCCC1)c1ccccc1	150
CN(C(=O)Cc1ccc(Cl)c(Cl)c1)[C@H](CN1CCCC1)c1ccccc1	600
CN(C(=O)Cc1ccccc1)[C@H](CN1CCCC1)c1ccccc1	> 1000
CN(C(=O)Cc1ccccc1N=C=S)[C@H](CN1CCCC1)c1ccccc1	1060
